The numbers were not newly measured in patent US10332616B2, “Movable type method applied to protein-ligand binding” (University of Florida Research Foundation, Inc., priority 2013, dated 2019), which cites them from elsewhere.

For the data set the following is noted: experimental solvation free energy; test set with 372 neutral compounds.

In the case of `CCl` [Compound 0160chl], the “Exp. ΔGsolv” value was -0.56 kcal/mol.
